pIC50: −log10 of the molar value.
Molecular target: human CYP11B2 (Homo sapiens (Human), UniProt P19099)
Test: V79-Human-CYP11B2 cell assay
Type: cell-based
Settings: V79 cells expressing human CYP11B2; 125 nM 11-deoxycorticosterone; aldosterone by HTRF
Method: V79 cell lines stably expressing the either the human CYP11B2 or the human CYP11B1 enzyme were generated using a standard transfection protocol. V79 cells were transfected with plasmids pTriEx3-Hygro-hCyp11B2 or pTriEx3-Hygro-hCyp11B1 using Lipofectamine2000 reagent. V79 cells that stably express the human CYP11B2 or human CYP11B1 enzyme were selected for and maintained in DMEM supplemented with 10% FBS and 400 μg/mL hygromycin for 2 weeks. Single cell clones were generated by infinite dilution in DMEM supplemented with 10% FBS and 400 μg/mL hygromycin until single colonies were obtained. Clones V79-hCYP11B2-CLE9 and V79-hCYP11B1-CL8C7, were determined to produce the most aldosterone and cortisol, respectively, and were selected for inhibitor screening. […] The amount of product in the supernatant (aldosterone for CYP11B2 assay and cortisol for the CYP11B1 assay) was measured using HTRF-based assay kit (Aldosterone HTRF-CisBio#64ALDPEB, Cortisol HTRF-CisBio #63IDC002-CORT). IC50s for the inhibitor were determined by plotting the amount of product formed against the concentration of inhibitor using sigmoidal dose-response curve (variable slope) fit in GraphPad.

Protein sequences, listed by entry. Tags and fused reporters are not part of them. Residues count along the entry.
UniProt P19099, 25-503: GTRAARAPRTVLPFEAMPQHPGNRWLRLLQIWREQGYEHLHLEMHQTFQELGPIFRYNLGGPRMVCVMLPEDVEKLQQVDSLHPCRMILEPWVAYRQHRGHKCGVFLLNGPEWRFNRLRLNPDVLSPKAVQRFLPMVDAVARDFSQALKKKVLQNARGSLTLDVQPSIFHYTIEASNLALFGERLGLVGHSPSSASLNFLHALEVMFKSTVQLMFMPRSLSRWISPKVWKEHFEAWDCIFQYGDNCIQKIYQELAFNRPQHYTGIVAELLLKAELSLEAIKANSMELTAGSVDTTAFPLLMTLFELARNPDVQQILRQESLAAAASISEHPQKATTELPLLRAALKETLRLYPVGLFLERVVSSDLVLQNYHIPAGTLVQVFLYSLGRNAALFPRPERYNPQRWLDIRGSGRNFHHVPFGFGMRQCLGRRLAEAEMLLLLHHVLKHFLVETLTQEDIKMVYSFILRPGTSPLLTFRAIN

pIC50: 6.16
SMILES: CC(=O)N1CCc2cc(-c3cncc(F)c3)c(F)cc21 [Example 48, 1-(6-fluoro-5-(5-fluoropyridin-3-yl)indolin-1-yl)ethanone]

From US9745282B2, “Indoline compounds as aldosterone synthase inhibitors” (Merck Sharp & Dohme Corp., priority 2012, dated 2017)
